The results in this text go back to article PMC5452965 (PeerJ, 2017).

Protein sequences, listed by entry. Tags and fused reporters are not part of them.
UniProt P02550, whole entry: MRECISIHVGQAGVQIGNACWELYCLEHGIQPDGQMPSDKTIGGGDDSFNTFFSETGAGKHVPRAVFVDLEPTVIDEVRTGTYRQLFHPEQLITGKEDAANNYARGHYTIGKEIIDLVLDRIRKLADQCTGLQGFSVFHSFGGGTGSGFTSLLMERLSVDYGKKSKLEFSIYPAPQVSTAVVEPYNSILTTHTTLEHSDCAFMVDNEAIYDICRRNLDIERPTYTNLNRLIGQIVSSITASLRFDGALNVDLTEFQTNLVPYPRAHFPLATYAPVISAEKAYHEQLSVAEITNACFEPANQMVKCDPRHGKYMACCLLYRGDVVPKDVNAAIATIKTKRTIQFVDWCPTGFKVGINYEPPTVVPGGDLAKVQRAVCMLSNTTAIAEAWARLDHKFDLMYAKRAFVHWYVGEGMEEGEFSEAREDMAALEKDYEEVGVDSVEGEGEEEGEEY
UniProt P02554, whole entry: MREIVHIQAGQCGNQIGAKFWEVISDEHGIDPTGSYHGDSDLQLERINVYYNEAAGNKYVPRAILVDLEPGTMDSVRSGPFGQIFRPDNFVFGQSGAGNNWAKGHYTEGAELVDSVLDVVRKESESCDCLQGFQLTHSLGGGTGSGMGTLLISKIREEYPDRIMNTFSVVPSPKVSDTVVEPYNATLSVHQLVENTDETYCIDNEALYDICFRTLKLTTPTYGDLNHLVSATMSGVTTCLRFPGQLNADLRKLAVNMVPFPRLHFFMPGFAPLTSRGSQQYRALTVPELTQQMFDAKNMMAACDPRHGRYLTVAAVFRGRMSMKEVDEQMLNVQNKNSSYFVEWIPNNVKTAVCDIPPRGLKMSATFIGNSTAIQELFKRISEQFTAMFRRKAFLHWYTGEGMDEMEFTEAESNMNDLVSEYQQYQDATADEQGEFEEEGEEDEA

The target of the assay is T1, Porcine brain tubulin plus MAPs (Sus scrofa, UniProt P02550+P02554).
T1 construct: Porcine brain tubulin plus MAPs was prepared by two cycles of polymerization and depolymerization; from tissue; host or cells: porcine brain
The assay can be described thus: In vitro tubulin polymerization assay. It is filed as biochemical. Particulars: read-out: IC50, inhibition of tubulin polymerization in vitro; 5.6 mg/ml tubulin-MAPs, 37°C, 40 min. How it is done:
Porcine brain tubulin plus MAPs was prepared by two cycles of polymerization and depolymerization according to a standard protocol ([Gell et al., 2011]). In-vitro tubulin polymerization assays were carried out in PEM buffer (100 mM PIPES, 2 mM EGTA, 0.1 mM EDTA, 3 mM MgCl2, 1 mM ATP and 1 mM GTP, pH 6.85) by mixing 5.6 mg/ml tubulin-MAPs with different concentrations of cucurbitacins in 96-well plates at 37°C for 40 min. The rate and extent of the polymerization reaction were monitored by light scattering at 360 nm using Tecan infinite M200 Pro.
The IC50 and IC80 were determined as the amount of the substances needed to reduce 50% or 80% cell viability/tubulin polymerization and calculated from concentration–response curves by Sigmaplot software (Systat Software Inc., San Jose, USA). All experiments were done in triplicate, repeated three times. Data are presented as mean ± standard deviation (SD). Statistical comparison between controls and different treatments were performed by an unpaired student’s t test using Microsoft excel 2013 (Microsoft Corporation, Washington, USA). Significance was considered at p < 0.05.

As to cucurbitacin B, the IC50 was above 1000 µM.

The term IC50 denotes the concentration at which inhibition is half-maximal.
